{
  "source": "patent US5990096A",
  "about": "“Formulations containing hyaluronic acid” (priority 1992, dated 1999)",
  "tested_on": "Fisher Bladder Carcinoma",
  "details": "rat, in vivo, iv",
  "data": [
    {"substance": "hyaluronic acid", "values": [
      {"measurement": "Effect on 5-FU uptake in tumor tissue", "value": "HA can enhance 5-FU uptake in tumor tissue"}
    ]}
  ]
}
